What is called IC50 is the concentration at which inhibition is half-maximal.

Amino acid sequences for entries named in this document (tags omitted). Residues count along the entry.
UniProt P00797, 67-406 limits assumed: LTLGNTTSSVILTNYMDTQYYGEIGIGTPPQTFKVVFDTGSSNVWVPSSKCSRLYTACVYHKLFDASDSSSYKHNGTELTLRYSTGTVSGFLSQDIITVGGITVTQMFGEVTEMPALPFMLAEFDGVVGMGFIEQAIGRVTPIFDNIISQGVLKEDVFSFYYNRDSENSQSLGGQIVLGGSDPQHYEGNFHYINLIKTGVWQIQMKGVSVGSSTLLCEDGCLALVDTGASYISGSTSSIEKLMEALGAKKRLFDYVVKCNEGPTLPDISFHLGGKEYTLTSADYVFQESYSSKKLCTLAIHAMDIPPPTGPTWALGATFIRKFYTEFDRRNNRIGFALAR

The experiment addresses recombinant human renin (Homo sapiens, UniProt P00797). The experiment is described as follows: co-crystals diffracting at […] Å (structure not reported here); IC50 also given.

As for `CCCCNc1c(N(C)C[C@H](O)[C@@H](N)C[C@H](Cc2ccc(OC)c(OCCCOC)c2)C(C)C)c(=O)c1=O` (single isomer, unassigned), the half-maximal inhibitory concentration (IC50) stood at 0.7 µM.
